Assay results published in patent US20180112258A1, “MEDICAL USES AND METHODS FOR TREATING CANCER USING MONOPOLAR SPINDLE 1 (MPS1) KINASE INHIBITORS” (THE INSTITUTE OF CANCER RESEARCH: ROYAL CANCER HOSPITAL, priority 2015, published 2018).

Legend:
[1] = test system: HCT116 cells containing MPS1 p.M600T; assay: Cell viability assay, HCT116 NvR clones with MPS1 p.M600T (NvR1 etc.)
[2] = test system: DLD1 Flp-In T-Rex cells expressing wild-type MPS1; conditions: over-expression of wild-type MPS1
[3] = test system: HCT116 cells containing MPS1 p.C604W; assay: Cell viability assay, HCT116 NvR clones with MPS1 p.C604W (NvR12 etc.)
[4] = target: T1, recombinant full-length MPS1 p.C604W (Homo sapiens, UniProt P33981, C604W); assay: Recombinant MPS1 kinase assay (electrophoretic mobility shift), p.C604W; assay type: biochemical; conditions: in vitro (Table 2)
T1 construct: made in house; host or cells: Sf9 insect cells (baculovirus, modified pFastBac1)
T1 sequence (P33981 1-857 C604W): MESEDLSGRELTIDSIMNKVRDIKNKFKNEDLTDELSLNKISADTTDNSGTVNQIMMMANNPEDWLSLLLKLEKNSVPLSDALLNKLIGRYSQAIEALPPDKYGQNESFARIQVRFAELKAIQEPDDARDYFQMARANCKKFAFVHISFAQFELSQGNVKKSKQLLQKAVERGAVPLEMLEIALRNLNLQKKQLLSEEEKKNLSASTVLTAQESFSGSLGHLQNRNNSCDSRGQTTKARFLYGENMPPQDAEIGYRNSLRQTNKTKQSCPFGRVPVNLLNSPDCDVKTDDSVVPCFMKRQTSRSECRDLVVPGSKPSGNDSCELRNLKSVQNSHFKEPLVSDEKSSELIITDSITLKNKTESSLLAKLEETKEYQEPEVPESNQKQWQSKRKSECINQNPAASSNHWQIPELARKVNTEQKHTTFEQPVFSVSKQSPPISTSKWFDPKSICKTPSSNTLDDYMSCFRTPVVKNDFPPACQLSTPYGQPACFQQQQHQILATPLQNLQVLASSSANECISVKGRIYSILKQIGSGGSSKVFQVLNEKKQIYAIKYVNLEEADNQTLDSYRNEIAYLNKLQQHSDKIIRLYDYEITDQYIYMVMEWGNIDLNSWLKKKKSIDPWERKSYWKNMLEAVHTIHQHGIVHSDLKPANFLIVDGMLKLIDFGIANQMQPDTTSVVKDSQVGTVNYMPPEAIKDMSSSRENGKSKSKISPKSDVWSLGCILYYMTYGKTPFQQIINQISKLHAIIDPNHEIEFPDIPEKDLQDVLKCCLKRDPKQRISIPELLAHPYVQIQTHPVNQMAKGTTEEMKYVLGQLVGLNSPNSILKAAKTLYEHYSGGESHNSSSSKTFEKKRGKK
Procedure: For high ATP concentration assays, 1 mM ATP was used. An ECHO® 550 (Labcyte Inc) acoustic dispenser was used to generate duplicate 8 point dilution curves directly into 384-well low-volume polystyrene assay plates (Corning Life Sciences). The reaction was carried out for 90 min at room temperature.

| SMILES | Resistance conferred by mutation p.M600T [1] | resistance in cell viability assay vs parental [1] | resistance conferred by construct in viability assay [2] | Resistance conferred by mutation p.C604W [3] | fold resistance in cell viability assay vs parental [1] [fold] | fold more active against recombinant p.C604W than wild-type protein [4] | resistance / potency in cell viability assay vs parental ([3]; p.C604W (NvR12)) | fold more effective towards NvR12 than parental HCT116 cells ([3]; p.C604W (NvR12), 4-day cell viability assay) [fold] |
| --- | --- | --- | --- | --- | --- | --- | --- | --- |
| COc1cc(OC2CCN(C)CC2)ccc1Nc1ncc2c(n1)n(C1CCCC1)c(=O)n2C [AZ3146] | R | able to confer resistance | unable to confer resistance | R | – | – | – | – |
| Cc1ncc(-c2ccc(Nc3cc4c(cn3)cc(-c3cnn(C)c3)n4C(=O)OC(C)C)cc2)n1C [Compound 2, Isopropyl 6-(4-(1,2-dimethyl-1H-imidazol-5-yl)-2-phenylamino)-2-(1-methyl-1H-pyrazol-4-yl)-1H-pyrrolo[3,2-c]pyridine-1-carboxylate] | R | – | – | – | ~2 | approximately 5 fold | more potent | 5 |
